## scFv variants of Ab-14 (light chain) against a SARS-CoV-2 spike peptide

From the AlphaSeq antibody data of Engelhart et al. 2022 (doi:10.1038/s41597-022-01779-4), copy in the FLAb collection.

Target: peptide PDVDLGDISGINAS, taken from heptad repeat 2 (HR2) of SARS-CoV-2 spike.

Parent scFv Ab-14: VH joined to VL by a (GGGGS)3 linker. Changes lie in the light chain CDRs alone.
VH: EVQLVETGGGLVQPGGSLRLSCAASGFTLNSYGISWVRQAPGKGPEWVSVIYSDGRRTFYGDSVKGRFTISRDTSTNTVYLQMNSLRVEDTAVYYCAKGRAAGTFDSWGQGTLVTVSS
VL: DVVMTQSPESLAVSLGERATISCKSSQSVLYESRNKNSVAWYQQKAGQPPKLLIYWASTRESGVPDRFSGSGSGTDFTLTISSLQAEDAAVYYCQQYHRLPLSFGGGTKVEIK

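In library AAYL50, one, two or three CDR residues were substituted; doubles and triples were drawn at random. The scFvs were displayed on barcoded MATa yeast, the peptide on MATalpha yeast. After mating in shaken culture at 30 °C for 16 h, diploids were selected and their barcode pairs sequenced. Read counts were normalised to the haploid input and turned into Kd by a linear fit to BCL2-family pairs of known affinity, for each replicate. Mating was done three times.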

Positions count from residue 1 of the parent VL; N37M puts M in place of N.
This list gathers variants with a substitution at N37 (VL, numbered from residue 1).
The Kd shown is the geometric mean over detected replicates; a lower Kd is a better binder.
A pair that was not seen in any replicate is written "nd"; this usually means weak binding, but a binder can also be missed.
Empty control strains, which show no peptide, gave a signal in 18% of pairings with library AAYL50; the median was 15 µM and 95% of these signals were weaker than 970 nM. No background was subtracted. For each scFv, signals with the empty controls are counted beside the result.

With N37M/S38I the result was nd (0 of 3 replicates; controls 0 of 9). The variant N37E/Q95I/R99C gave 20 µM (2 of 3 replicates; controls 3 of 9). With N35M/N37Q the result was 24 nM (3 of 3 replicates; controls 3 of 9). The variant N37P/S58E/L100P showed nd (0 of 3 replicates; controls 0 of 9). For N37H/R60K, the assay gave 26 nM (3 of 3 replicates; controls 0 of 9). The variant N37H/E61S/R99H gave 210 nM (1 of 3 replicates; controls 0 of 9). The variant N37L/Q95A/Y97Q showed nd (0 of 3 replicates; controls 0 of 9). For E32R/N37V/L100Y, the assay gave nd (0 of 3 replicates; controls 2 of 9).

For K24D/N37R/P101L, the assay gave nd (0 of 3 replicates; controls 3 of 9). For S28H/S33I/N37Y, the assay gave 780 nM (3 of 3 replicates; controls 2 of 9). The variant R34P/N37P/V39E showed nd (0 of 3 replicates; controls 0 of 9). The variant S25T/S33L/N37V gave 5.5 µM (3 of 3 replicates; controls 1 of 9). With L30D/N37H/L102D the result was nd (0 of 3 replicates; controls 4 of 9). With R34D/N37K/P101C the result was 33 nM (1 of 3 replicates; controls 0 of 9). The variant S25E/N37E/A40L gave nd (0 of 3 replicates; controls 0 of 9). For N37G/S58C/T59P, the assay gave 7.8 µM (2 of 3 replicates; controls 2 of 9).

With Q27P/N35S/N37K the result was 150 nM (3 of 3 replicates; controls 3 of 9). The variant N35E/N37H gave 6.1 nM (3 of 3 replicates; controls 4 of 9). For Y31T/N37S/S62A, the assay gave 11 nM (3 of 3 replicates; controls 0 of 9). For S26R/N37S/S58Q, the assay gave 330 nM (2 of 3 replicates; controls 0 of 9). The variant N37C/V39I/T59F showed 140 nM (2 of 3 replicates; controls 0 of 9). The variant V29M/N37L/L100S gave 59 nM (1 of 3 replicates; controls 1 of 9). For V29A/N37T/V39Q, the assay gave nd (0 of 3 replicates; controls 0 of 9). The variant V29E/N37D/L102F showed 2.0 µM (1 of 3 replicates; controls 0 of 9).

The variant Y31V/N37I/P101F gave nd (0 of 3 replicates; controls 0 of 9). The variant N37T/Q96T/P101L showed 5.1 µM (1 of 3 replicates; controls 4 of 9). The variant N37S/R60L/L102S gave 20 nM (3 of 3 replicates; controls 0 of 9). The variant S28I/N37W/V39W showed nd (0 of 3 replicates; controls 0 of 9). The variant N37C showed 56 nM (3 of 3 replicates; controls 0 of 9). The variant S33P/N37R/S58L gave 84 µM (1 of 3 replicates; controls 0 of 9). With N37K/S58R/E61T the result was 4.9 µM (1 of 3 replicates; controls 0 of 9). The variant S26K/N37C/W56D showed nd (0 of 3 replicates; controls 2 of 9).

With N37C/V39N/Q96H the result was 300 nM (1 of 3 replicates; controls 1 of 9). The variant K36S/N37G showed 8.5 nM (3 of 3 replicates; controls 0 of 9). The variant S26T/V29I/N37A gave 15 nM (3 of 3 replicates; controls 1 of 9). The variant K36D/N37D/H98T gave 1.0 µM (2 of 3 replicates; controls 2 of 9). The variant Q27I/R34W/N37M gave 110 nM (3 of 3 replicates; controls 2 of 9). The variant V29M/N37H/T59R showed 340 nM (3 of 3 replicates; controls 1 of 9). With N37A/S38Y/Y97P the result was nd (0 of 3 replicates; controls 0 of 9).

Extract of 3 entries:

| changes | apparent Kd | seen in | empty controls |
|---|---|---|---|
| N37M/S38I | nd | 0 of 3 | 0 of 9 |
| S28H/S33I/N37Y | 780 nM | 3 of 3 | 2 of 9 |
| N37S/R60L/L102S | 20 nM | 3 of 3 | 0 of 9 |